From patent US11066368B2, “Process for the preparation and particle size reduction of pirfenidone” (Laurus Labs Limited, priority 2016, dated 2021)

Assay: Shock sensitive test by fall hammer test
Conditions: hammer 5 kg, height 80 cm

**Q.** For `Cc1ccc(=O)n(-c2ccccc2)c1` [Pirfenidone, 5-methyl-1-phenyl-2-1(H)-pyridone], which “Shock sensitivity (fall hammer result)” value is on record?
**A.** The value was “Detonation was observed”.
